Experimental findings from US20230190870A1, “Method for Treating Lysosomal Storage Diseases with Histatin Peptides” (THE BOARD OF TRUSTEES OF THE UNIVERSITY OF ILLINOIS, priority 2020, published 2023) are described below.

Sequences of proteins named here, by UniProt entry; tags and fusion partners are left off.
UniProt Q5BJF2, whole entry: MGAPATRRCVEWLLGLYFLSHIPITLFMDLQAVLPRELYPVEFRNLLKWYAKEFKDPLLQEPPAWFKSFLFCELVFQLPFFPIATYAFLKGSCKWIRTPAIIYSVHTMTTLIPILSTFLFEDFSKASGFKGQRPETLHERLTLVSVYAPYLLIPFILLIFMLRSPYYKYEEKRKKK

By Kd is commonly meant the equilibrium constant for the complex coming apart.

The target in assay [1] is full length TMEM97 and GST-TMEM97 (108-176). Kind of assay: SPR. On the technique in general: In SPR one partner is held on a chip, and binding of the other changes the refractive index at the surface.
In assay [2] the target is T1, full-length recombinant TMEM97 (HEK293 cells) (Homo sapiens, UniProt Q5BJF2).
T1 construct: Recombinant full-length TMEM97 (also called MAC30, from HEK293 cells); purchased OriGene (Rockville, Md.); host or cells: HEK293 cells
Kind of assay: Surface plasmon resonance, immobilized full-length TMEM97. Particulars: SPR; full length TMEM97 and GST-TMEM97 (108-176), values given 'respectively'. Format: binding.

For the compound Histatin 3 (Hst3) (peptide), in assay [1], the Kd was 3.8 µM.

As for `C[C@H](NC(=O)[C@H](Cc1c[nH]cn1)NC(=O)[C@H](CO)NC(=O)[C@@H](N)CC(=O)O)C(=O)N[C@@H](CCCCN)C(=O)N[C@@H](CCCNC(=N)N)C(=O)N[C@@H](Cc1c[nH]cn1)C(=O)N[C@@H](Cc1c[nH]cn1)C(=O)NCC(=O)N[C@@H](Cc1ccc(O)cc1)C(=O)N[C@@H](CCCCN)C(=O)N[C@@H](CCCNC(=N)N)C(=O)N[C@@H](CCCCN)C(=O)N[C@@H](Cc1ccccc1)C(=O)N[C@@H](Cc1c[nH]cn1)C(=O)N[C@@H](CCC(=O)O)C(=O)N[C@@H](CCCCN)C(=O)N[C@@H](Cc1c[nH]cn1)C(=O)N[C@@H](Cc1c[nH]cn1)C(=O)N[C@@H](CO)C(=O)N[C@@H](Cc1c[nH]cn1)C(=O)N[C@@H](CCCNC(=N)N)C(=O)NCC(=O)N[C@@H](Cc1ccc(O)cc1)C(=O)O` [Hst5], in assay [2], the “% Rmax” value is given as 72% and the Kd was determined as 4.7 µM. Histatin 5 (Hst5) (peptide) gave a Kd in assay [1] of 4.7 µM.

With `CC(C)C[C@H](NC(=O)[C@H](Cc1ccc(O)cc1)NC(=O)[C@H](CC(N)=O)NC(=O)[C@H](CO)NC(=O)[C@H](CCCNC(=N)N)NC(=O)[C@H](Cc1ccc(O)cc1)NC(=O)CNC(=O)[C@H](CCCNC(=N)N)NC(=O)[C@H](Cc1c[nH]cn1)NC(=O)[C@H](CO)NC(=O)[C@H](Cc1c[nH]cn1)NC(=O)[C@H](Cc1c[nH]cn1)NC(=O)[C@H](CCCCN)NC(=O)[C@H](CCC(=O)O)NC(=O)[C@H](Cc1c[nH]cn1)NC(=O)[C@H](Cc1ccccc1)NC(=O)[C@H](CCCCN)NC(=O)[C@H](CCCNC(=N)N)NC(=O)[C@H](CCCCN)NC(=O)[C@H](Cc1ccc(O)cc1)NC(=O)CNC(=O)[C@H](Cc1c[nH]cn1)NC(=O)[C@H](Cc1c[nH]cn1)NC(=O)[C@H](CCCNC(=N)N)NC(=O)[C@H](CCCCN)NC(=O)[C@H](C)NC(=O)[C@H](Cc1c[nH]cn1)NC(=O)[C@H](CO)NC(=O)[C@@H](N)CC(=O)O)C(=O)N[C@@H](Cc1ccc(O)cc1)C(=O)N[C@@H](CC(=O)O)C(=O)N[C@@H](CC(N)=O)C(=O)O` [Hst3], in assay [2], the “% Rmax” value is 56% and the Kd came to 3.8 µM.
